# Laboratory results reported in patent US7399731B2, “Electrically conductive non-aqueous wellbore fluid” (M-I L.L.C., priority 2001, dated 2008).
# Columns and labels:
# [1] = assay type: physicochemical
# Procedure: Unbranched straight chain acid salts (commonly termed n-alkylcarboxylates) are not soluble in oil although the corresponding acids are soluble. […] We have observed similar behaviour in phosphates and sulphonates. Sulphates, phosphonates and […] similarly branched chains are expected to behave in essentially the same way. Oligomers of the branched chain salts are also expected to behave in essentially the same way. A variety of metal carboxylates were prepared in heptane by reacting […] 2-ethyl hexanoic acid directly with the metal of choice or with a metal base such as the hydride or hydroxide. […] The example described in detail below is potassium 2-ethyl hexanoate (FIG. 2), the other systems behaving in analogous manners (although the measured conductivities varied somewhat). Metal concentrations of up to about 2 M can be achieved and conductivities of up to about 2 ìS·cm^-1 at 20° C. were measured, such conductivities being above the level required for downhole electrical logging operations.
# [2] = Electrical conductivity of solutions of the organic salts in non-aqueous solvents; assay type: physicochemical
# Procedure: A variety of metal carboxylates were prepared in heptane by reacting versatic acid and 2-ethyl hexanoic acid directly with the metal of choice or with a metal base such as the hydride or hydroxide. Lithium, sodium, potassium, rubidium, calcium and gadolinium systems were synthesised.
# A 1 molar solution of potassium bis(2-ethylhexyl) phosphate in Brij 30 was then prepared by dissolving 18.02 grams of the salt in 47.5 grams (50 ml) of the solubilising agent.
# A 1 molar solution of AOT (Aldrich Chemicals) in Brij 30 was prepared by dissolving 22.23 grams of AOT in 47.5 grams (50 ml) of Brij 30.
# The final AOT/neopentyl glycol/Brij 30 solution of FIG. 10 (i.e. 1 molar AOT and 2 molar neopentyl glycol in Brij 30) was then diluted with successive amounts of mineral spirits and the conductivity measured at each addition.
solubility in oil [1],"conductivity ([2]; 2 M in ether solubilising agent such as 18-crown-6 or Brij 30 (heptane replaced), at 60° C.)",conductivity ([2]; in ether solubilising agent with neopentyl glycol solubilising agent added),Substance
particularly soluble in oil,–,–,calcium versatate
–,50 ìS·cm^−1,~400 ìS·cm^−1,potassium 2-ethyl hexanoate
